Experimental properties from OPERA 2.9

Source: data files of OPERA 2.9 (Mansouri et al.), github.com/kmansouri/OPERA.

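OPERA's authors assembled the values from existing databases and did not measure them anew. One number stands for a compound and property, with no spread given. How each value was measured is not recorded, so precision varies. Where a salt, mixture or single isomer is drawn, the source does not say that exactly this form was tested. Some entries may be limits or estimates that an upstream database listed as plain numbers.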

Melting points are in °C. The boiling point refers to atmospheric pressure (760 mmHg), by the definition of the set. logP is the log10 of the octanol-water partition coefficient; higher is more lipophilic. Solubility in water is on a log10 molar scale (set defined at 25 °C). Vapor pressures (log10 mmHg) refer to near room temperature, 15 to 30 °C; higher is more volatile. fu is the fraction unbound in human plasma, from 0 to 1. Clint is human hepatic intrinsic clearance in µL/min per million cells; 0 means that no clearance was seen.

C/C=C/C=C/C(=O)OCCC[Si](OC)(OC)OC has logP 3.09 and log S -2.793 (log10 mol/L). The entry for CCc1cccc(C)c1Nc1ccc(Nc2c(C)cccc2CC)c2c1C(=O)c1ccccc1C2=O lists melting point 171.4 °C and log S -7.375 (log10 mol/L). Listed for COc1ccc([N+](=O)[O-])cc1OC(C)=O [2-Methoxy-5-nitrophenol acetate]: logP 1.487 and log S -2.947 (log10 mol/L) and vapor pressure -2.979 (log10 mmHg). CCOC(=O)[C@@]12CCC[C@@H]1[C@@H]1CC[C@H]2C1 (relative stereo) is reported with logP 4 and log S -3.762 (log10 mol/L) and vapor pressure -1.957 (log10 mmHg). Listed for Cc1cn[nH]c1 [4-Methylpyrazole]: logP 0.9 and log S 0.833 (log10 mol/L) and vapor pressure -1.17 (log10 mmHg).

Listed for COc1ccc(C=CC(=O)OCCC(C)C)cc1 [Amiloxate]: melting point 3.5 °C and logP 4.78 and log S -5.492 (log10 mol/L) and vapor pressure -4.979 (log10 mmHg). For COc1ccccc1C(=O)NS(=O)(=O)c1ccc(C(=O)NC2CC2)cc1 [Cyprosulfamide] the data give melting point 218 °C and logP -0.8 and log S -4.476 (log10 mol/L). For Cc1nn(-c2ccccc2)c(=O)[c-]1/N=N/c1ccccc1C(=O)[O-].Cc1nn(-c2ccccc2)c(=O)[c-]1/N=N/c1ccccc1C(=O)[O-].[Cr+3].[H+] [Acid Yellow 121] the data give logP 1.098 and log S -3.61 (log10 mol/L). Listed for CC1(C)COC2(CC[C@H]3[C@@H]4CCC5=CC6(CC[C@@H]5[C@H]4C(=O)C[C@@]32C)SCCS6)OC1: melting point 156.3 °C and logP 5.2 and log S -7.245 (log10 mol/L). Listed for NC(CO)(CO)CO [Tromethamine]: boiling point 289.4 °C and logP 0.005 and log S 0.658 (log10 mol/L) and vapor pressure -5.698 (log10 mmHg).

CC(C)[C@@H]1CC[C@@H](C)C[C@H]1OC(=O)[C@@H]1CCC(=O)N1 has logP 3.13 and log S -2.633 (log10 mol/L) and vapor pressure -5.375 (log10 mmHg). The entry for CCC(CC)CO[Si](OCC(CC)CC)(OCC(CC)CC)OCC(CC)CC [Tetrakis(2-ethylbutyl) orthosilicate] lists logP 6.21 and log S -8.191 (log10 mol/L) and vapor pressure -3.937 (log10 mmHg). For CC(C)(CO)Cc1ccccc1 [Dimethyl phenylpropanol] the data give logP 2.24 and log S -2.042 (log10 mol/L) and vapor pressure -0.4 (log10 mmHg). Listed for C[C@H]1CC[C@@]2(O)C(C)(C)[C@@H]3CC[C@@]2(C)[C@H]1C3: logP 5.5 and log S -3.726 (log10 mol/L) and vapor pressure -2.979 (log10 mmHg). The entry for C=COCCCN [Aminopropylvinylether] lists melting point -57 °C and logP 0.16 and vapor pressure 0.629 (log10 mmHg).

Listed for C=CN1CC(C)OC1=O (centres undefined) [3-Ethenyl-5-methyl-1,3-oxazolidin-2-one]: melting point 19 °C and boiling point 254 °C and logP 0.8 and vapor pressure -1.782 (log10 mmHg). Cc1c(C)c2c(c(C)c1O)CCC(C)(COc1ccc(CC3SC(=O)NC3=O)cc1)O2 (centres undefined) [Troglitazone] is reported with plasma fu 0.001678 and Clint 24.84 µL/min/10^6 cells. Listed for CC/C=C(\C)C(=O)O [2-Pentenoic acid, 2-methyl-, (2E)-]: logP 1.9 and vapor pressure -1.913 (log10 mmHg). The entry for C=CCCCCCCCC(=O)OC [methyl 9-decenoate] lists boiling point 234.8 °C and logP 4.6 and log S -4.373 (log10 mol/L) and vapor pressure -0.999 (log10 mmHg). CC1(C)C2CCC1(CS(=O)(=O)O)C(=O)C2.O=C(O)C(c1ccccc1Cl)N1CCc2sccc2C1 (centres undefined) has melting point 165.5 °C and logP 4.4 and log S -3.613 (log10 mol/L).

Listed for CC(=O)OC(C)(C)C1CC=C(C)CC1 (centres undefined) [alpha-Terpinyl acetate]: log S -3.931 (log10 mol/L) and vapor pressure -1.367 (log10 mmHg). The entry for CCCCCCCCCCCCCCCC=CCC(CC(=O)O)C(=O)O (centres undefined) [Butanedioic acid, 2-(2-octadecen-1-yl)-] lists melting point 60.73 °C and logP 6.25 and vapor pressure -4.952 (log10 mmHg). CCCCC1CCCC(=O)O1 (centres undefined) [2H-Pyran-2-one, 6-butyltetrahydro-] is reported with logP 2.4 and vapor pressure -2.381 (log10 mmHg). For CC1(C)O[C@@H]2C[C@H]3[C@@H]4C[C@H](F)C5=CC(=O)CC[C@]5(C)[C@H]4[C@@H](O)C[C@]3(C)[C@]2(C(=O)CO)O1 [Flurandrenolide] the data give logP 0.6 and log S -3.878 (log10 mol/L). CC1=C(C#N)C(C)(C)CCC1 [2,6,6-trimethyl-1-cyclohexene-1-carbonitrile] has melting point 0.8 °C and boiling point 229 °C and logP 2.7 and vapor pressure -1.286 (log10 mmHg).

CCCCC(=O)OC(=O)CCCC [valeric anhydride] has logP 3.33 and vapor pressure -1.426 (log10 mmHg). CC(CO)C1CCCCCCCCCCC1 (centres undefined) [2-Cyclododecylpropan-1-ol] has melting point 34.9 °C and log S -5.452 (log10 mol/L) and vapor pressure -3.979 (log10 mmHg). For C/C=C/CCc1ccc(-c2ccc(C)cc2)cc1 [4-Methyl-4'-[(3E)-pent-3-en-1-yl]-1,1'-biphenyl] the data give melting point 74.9 °C and boiling point 367 °C and logP 7.3 and vapor pressure -5.803 (log10 mmHg). For NCCC(O)(P(=O)(O)O)P(=O)(O)O [Pamidronic acid] the data give logP -4.7 and log S -1.173 (log10 mol/L). CC(C)(O)CCc1ccccc1 [2-Methyl-4-phenylbutan-2-ol] is reported with logP 2.41 and log S -1.556 (log10 mol/L).

COCc1cc(N)ccc1N [2-Methoxymethyl-p-phenylenediamine] is reported with melting point 80.9 °C and logP -0.213 and vapor pressure -7.173 (log10 mmHg).

Excerpt, the opening 5 entries:

For C/C=C/C=C/C(=O)OCCC[Si](OC)(OC)OC the data give logP 3.09 and log S -2.793 (log10 mol/L).
For CCc1cccc(C)c1Nc1ccc(Nc2c(C)cccc2CC)c2c1C(=O)c1ccccc1C2=O the data give melting point 171.4 °C and log S -7.375 (log10 mol/L).
For COc1ccc([N+](=O)[O-])cc1OC(C)=O [2-Methoxy-5-nitrophenol acetate] the data give logP 1.487 and log S -2.947 (log10 mol/L) and vapor pressure -2.979 (log10 mmHg).
For CCOC(=O)[C@@]12CCC[C@@H]1[C@@H]1CC[C@H]2C1 (relative stereo) the data give logP 4 and log S -3.762 (log10 mol/L) and vapor pressure -1.957 (log10 mmHg).
For Cc1cn[nH]c1 [4-Methylpyrazole] the data give logP 0.9 and log S 0.833 (log10 mol/L) and vapor pressure -1.17 (log10 mmHg).